Nrf2 inh = blocks Nrf2 signaling; A549 ARE-Fluc reporter, luciferase luminescence, 18-24 h; Potency, µM (doses to about 46 µM), actives largely listed as inhibitors; 2.1% of 360,000 active; AID 504444; also: nearly all actives have a fitted effect of over 60% in size
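Concentration-response testing used A549 ARE_Fluc cells at 5000 cells/well. Following an 18-24 h compound incubation, viability was read by fluorescence (Ex 405/Em 525) and luciferase output by luminescence.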
PTAP TSG101 blk = blocks PTAP/TSG101 interaction to inhibit HIV-1 budding; Fluorescence polarization, FITC-PTAP peptide / Tsg101 binding; Potency, µM (top dose mostly 115 µM), hits mostly inhibitors; 340,000 tested, under 10 active; Q99816; active = well fitted inhibition curve with a large enough effect in the main read-out, with a control signal flat, not every such curve was filed as active; inconclusive = small, poorly fitted or top-dose-only effect, or effect the other way, or a change in a side signal; inactive = no such curve, though single readings can be large or run the other way
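Tsg101 binding domain (10 uM final) was mixed with compound and a FITC-labeled PTAP peptide (50 nM final) in HEPES pH 7.5 buffer with NaCl, Tween 20, EDTA and TCEP; fluorescence polarization was read after 20 min at r.t.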
Glioma ERSR ind = ER stress response induction in glioma; 0.02% of 420,000 active; U87-MG GRP78 promoter luciferase reporter, 16 h; Potency, µM, most hits filed as activators; AID 602332; also: series mostly up to about 76 µM; nearly all actives have a fitted effect of over 35% in size
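ERSR induction read as luciferase luminescence (Bright-Glo, 10 min at room temperature) in stably transfected human U87-MG glioma cells exposed to compounds for 16 h, using GRP78 as sensor.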
A549 viability = A549 cytotoxicity, counter-screen for Nrf2 inhibitors | A549 ARE-Fluc cells, CellTiter-Fluor viability, 18-24 h | Potency, µM (doses to about 46 µM), actives largely listed as inhibitors | 0.16% of 390,000 active
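A549 ARE_Fluc cells in 5% FBS OPTI-MEM were exposed to compounds in concentration-response for 18-24 h at 37 deg C. Viability was read by CellTiter-Fluor fluorescence (Ex 405/Em 525) after 30 min, before the luciferase read.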
Nrf2 ARE act = Nrf2 pathway activation | AREc32 ARE-luciferase reporter (MCF7-derived line), luminescence, 24 h | Potency, µM (titrated, usually from 46.1 µM), hits mostly activators | 0.31% of 410,000 active | AID 624171; also: nearly all actives have a fitted effect of over 65% in size
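Luciferase luminescence (Steady-Glo, 30 min at room temperature) served as the read-out of ARE activation in AREc32 cells treated with compounds for 24 hr at 37 deg C.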
miR-21 FLuc = raises the signal of a miR-21 reporter | HeLa miR-21 FLuc reporter, luciferase, 48 h | Potency, µM (doses to about 38.3 µM) | 340,000 tested, under 10 active | AID 2288; active = well fitted rising curve with a large enough effect; inconclusive = small, poorly fitted or top-dose-only effect; inactive = no such curve, though single readings can be large or run the other way;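 note: miR-21 action dims this reporter so a rising signal means less miR-21 action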
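Compounds were titrated across several concentrations (up to approximately 40 uM) and incubated 48 hours with HeLa miR-21-FLuc reporter cells (miR-21 target sequence downstream of FLuc, endogenous miR-21). Readout was firefly luciferase luminescence after lytic detection reagent.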
A number is an active result; – = inactive; ? = inconclusive; · = not tested or not shown; ! = repeats disagree. Most compounds without a hit are left out; they make up all but 2.1% or so of the library. Unless noted, calls follow the shape of the dose curve; as a rule, active = well fitted curve in the direction sought with a large enough effect; inconclusive = small, poorly fitted or top-dose-only effect, or another doubt; inactive = no such curve, though single readings can be large; an effect the other way counts as inactive or inconclusive.

SMILES	Nrf2 inh	PTAP TSG101 blk	Glioma ERSR ind	A549 viability	Nrf2 ARE act	miR-21 FLuc
O=C1c2ccccc2C(=O)N1c1cccc2ccncc12	–	·	·	–	·	·
O=[N+]([O-])c1c(NCCO)cc(N2CCC3(CC2)OCCO3)c2nonc12	–	–	–	9.2µM	–	–
CN(CCO)c1cc(N2CCC3(CC2)OCCO3)c2nonc2c1[N+](=O)[O-]	–	–	–	–	–	–
COCCNC(=S)N(CCc1c(C)[nH]c2ccc(C)cc12)Cc1cc(OC)c(OC)c(OC)c1	–	–	–	–	–	–
CCNC(=S)N(CCc1c(C)[nH]c2ccc(C)cc12)Cc1cc(OC)c(OC)c(OC)c1	18µM	–	–	–	–	–
OC1CCN(Cc2ccc3c(c2)CN(Cc2ccc(Oc4ncccn4)cc2)CCO3)CC1	·	·	–	·	·	·
Cc1nn(-c2ccc(F)cc2)c(Cl)c1C(=O)OC(C)C(=O)N(C)C1CCCCC1 (stereo not given)	18µM	–	–	–	–	·
O=c1[nH]c(CN2CCN(c3ncccn3)CC2)nc2c(Br)cc(Br)cc12	–	–	–	–	–	–
O=c1[nH]c(CN2CCN(c3ccccn3)CC2)nc2c(Br)cc(Br)cc12	23µM	–	–	?	–	–
CCC1CN(CCNC(=O)c2ccc3c(c2)OCCO3)Cc2cc(OC)ccc2O1 (stereo not given)	·	·	–	·	·	·
Brc1cccc[n+]1CCCC[n+]1ccccc1Br	·	·	–	·	·	·
CN(Cc1cnc2nc(N)nc(N)c2n1)c1ccc(C(=O)N[C@H](CCC(=O)O)C(=O)O)cc1	·	·	–	·	·	·
CN(Cc1cnc2nc(N)nc(N)c2n1)c1ccc(C(=O)N[C@@H](CCC(=O)O)C(=O)O)cc1	1.5µM!	–	–	–	–	·
Cc1cc(C(=O)Nc2ccccc2-c2nc(CNC(=O)c3cscn3)c(C)o2)c(C)o1	·	·	–	·	·	·
CN(C)S(=O)(=O)c1ccc2c(c1)nc(CCC(=O)NCc1ccc(Cl)cc1)n2C	23µM	–	–	–	–	–
Cc1c(C(=O)N(C)C2CCOC2)sc2ncnc(NCc3ccc4c(c3)OCO4)c12 (stereo not given)	·	·	–	·	·	·
CN(CC(=O)Nc1ccc(Cl)c(C(F)(F)F)c1)C(=O)c1ccc2c(c1)NC(=O)CS2	21µM	–	–	–	–	·
CN(CC(=O)Nc1ccc(Cl)c(C(F)(F)F)c1)CC(=O)NC1CCCCC1	12µM	–	–	?	–	·
CN(CC(=O)Nc1cccc(S(=O)(=O)N2CCCC2)c1)CC(=O)Nc1ccc(Cl)c(C(F)(F)F)c1	26µM	–	–	?	–	·
CN(CC(=O)Nc1ccc(F)c(F)c1F)C(=O)c1ccc2c(c1)NC(=O)CS2	?	–	–	–	–	·
CN(CC(=O)Nc1cccc(S(=O)(=O)N2CCCC2)c1)CC(=O)Nc1ccc(F)c(F)c1F	?	–	–	–	–	·
Cc1c(Br)cnc2ccccc12	·	·	–	·	·	·
CC1CNCCN1S(=O)(=O)c1cccc2cnccc12 (stereo not given)	18µM	–	–	–	–	–
O=C(c1n[nH]c2c1CCCC2)N1CCOc2ccc(C(O)C(c3ccccc3)c3ccccc3)cc2C1 (stereo not given)	·	·	–	·	·	·
COc1cccc(/C=C/c2ccccn2)c1O	–	–	–	–	8.9µM	–
SMILES	Nrf2 inh	PTAP TSG101 blk	Glioma ERSR ind	A549 viability	Nrf2 ARE act	miR-21 FLuc
CN(Cc1cnc2ccccn12)C(=O)c1cc(NC(=O)c2ccccc2)cc2ncn(C3CCCC3)c12	·	·	–	·	·	·
N#C/C(=C(/O)c1ccco1)c1nc2ccccc2[nH]1	?	–	–	–	6.3µM	–
N#C/C(=C(/O)CCl)c1nc2ccccc2[nH]1	?	–	25µM	?	?	?
COCCCNc1ncnc2sc(C(=O)N3CCOCC3)c(C)c12	·	·	–	·	·	·
COCc1c(C(=O)NC2CCCC2)cnn1-c1nccc(-c2ccco2)n1	·	·	–	·	·	·
CCOc1ccc(C(=O)CC(Sc2ccc(C)cc2)C(=O)O)cc1 (stereo not given)	–	–	–	–	18µM	–
C/C(O)=C\c1nc2ccccc2oc1=O	–	–	–	–	16µM	–
Cc1ccc2oc(=O)c(/C=C(\O)c3cccs3)nc2c1	?	?	–	–	16µM	–
Cc1ccc2oc(=O)c(/C=C(\O)c3ccccc3)nc2c1	–	?	?	–	14µM	–
COc1cc(-c2ccc3ncnc(NCCc4cnc[nH]4)c3c2)cc(OC)c1OC	?	·	·	–	·	·
O=C1/C(=C/c2cccc(Br)c2)SC(=S)N1CCC(=O)N(CCO)c1ccccc1	–	–	–	–	13µM	–
CN1CCN(C(=O)CCCN2C(=O)/C(=C/c3cccc(Br)c3)SC2=S)CC1	?	–	–	?	13µM	–
Cc1ccc(NS(=O)(=O)c2cc3c(cc2N(C)C)NC(=O)CC3)cc1C	–	·	·	–	·	·
N#CN1CCC(NS(=O)(=O)c2ccc(F)cc2)CC1	?	·	·	–	·	·
CC/C=C(\C(=O)N[C@H]1C(=O)N2C(C(=O)OCOC(=O)C(C)(C)C)=C(COC(N)=O)CS[C@H]12)c1csc(N)n1	·	·	–	·	·	·
CC(=O)c1cn(CC(=O)Nc2ccc(C)cc2)c2ccccc12	?	–	–	–	–	–
O=C(c1ccco1)c1cn(CCOc2ccc(F)cc2)c2ccccc12	23µM	·	–	–	–	–
Cc1cccc(NC(=O)Cn2cc(C(=O)c3ccco3)c3ccccc32)c1C	21µM	·	–	–	–	–
Cc1ccc(C)c(NC(=O)Cn2cc(C(=O)c3ccco3)c3ccccc32)c1	–	·	–	–	–	–
CC(=O)c1cn(CC(=O)Nc2ccccc2C)c2ccccc12	9.2µM	–	–	–	–	–
CC(=O)c1cn(CC(=O)Nc2c(C)cccc2C)c2ccccc12	9.2µM	–	–	–	–	–
O=C(O)CCc1cc(F)c(S(=O)(=O)N2CCN(S(=O)(=O)c3ccc4c(c3)OCCO4)CC2)cc1F	–	·	·	–	·	·
CCOC(=O)c1c(-c2ccc(C)o2)csc1NC(=O)CN1CCCCC1	–	–	–	–	–	–
CCOC(=O)c1c(-c2ccc(C)o2)csc1NC(=O)CSc1nncs1	21µM	–	–	–	–	–
CCOC(=O)c1c(-c2ccc(C)o2)csc1NC(=O)CN(C)CC(=O)Nc1ccc(C)cc1	16µM	–	–	–	–	–
CCOC(=O)c1c(-c2ccc(C)o2)csc1NC(=O)CN1CCN(CC)CC1	–	–	–	–	–	–
O=C(O[C@H]1[C@H](Cc2ccccc2)NS(=O)(=O)[C@H]2CC3C=C[C@]12O3)c1ccc(Br)cc1	·	·	–	·	·	·
O=C(NCC1(N2CCOCC2)CCCC1)c1cnn(-c2nccc(-c3ccco3)n2)c1C1CC1	·	·	–	·	·	·
CCNC(=O)c1cc(NC(=O)COC)cc2nc(-c3ccncc3)n(C)c12	·	·	–	·	·	·
Cc1oc(-c2cccc(NC(=O)c3ccccn3)c2)nc1CNC(=O)C#Cc1ccccc1	·	·	–	·	·	·
